In PMC5303876 (2017):

B1: refolded N-loop truncated PD-1 (N33-R147, IgV domain) expressed in E. coli (domain or fragment)
chain: NPPTFSPALLVVTEGDNATFTCSFSNTSESFVLNWYRMSPSNQTDKLAAFPEDRSQPGQDCRFRVTQLPNGRDFHMSVVRARRNDSGTYLCGAISLAPKAQIKESLRAELRVTER
B2: N-loop truncated PD-1 (N33-R147, IgV domain) expressed in insect cells (domain or fragment)
chain: B1 chain

Target: PD-L1 protein (F19-R238), refolded from E. coli (human, UniProt Q9NZQ7 19-238)
Assay: SPR

| Binder | Kd [µM] |
| --- | --- |
| B1 | 4.06 |
| B2 | 2.49 |
